Source: PubChem BioAssay AID651997 (Sanford-Burnham Center for Chemical Genomics, 2013)
The list shows a part of the results, in another mix than the full data. The source made the active and inactive calls.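 How the source made its calls: active means inhibition of at least 50%; inactive means the rest.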

Sequences of proteins named here, by UniProt entry; tags and fusion partners are left off.
UniProt P32249, whole entry: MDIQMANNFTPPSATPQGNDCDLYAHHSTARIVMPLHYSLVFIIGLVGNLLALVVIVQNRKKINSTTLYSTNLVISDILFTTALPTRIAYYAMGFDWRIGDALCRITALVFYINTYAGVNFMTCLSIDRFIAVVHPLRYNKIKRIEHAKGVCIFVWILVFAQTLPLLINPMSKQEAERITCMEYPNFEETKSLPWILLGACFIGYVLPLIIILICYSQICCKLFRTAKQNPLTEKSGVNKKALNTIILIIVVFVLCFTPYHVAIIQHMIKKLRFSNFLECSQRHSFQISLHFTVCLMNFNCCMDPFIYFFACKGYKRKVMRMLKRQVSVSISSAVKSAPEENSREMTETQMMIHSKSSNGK

The compounds below were run against G-protein coupled receptor 183 (Homo sapiens) (UniProt P32249) (assay: EBI2 antagonist hit retest, beta-arrestin, confirmation, cell-based, single concentration, luminescence, 7a,25-OHC stimulation (AID 651997)). Conditions: 7a,25-OHC antagonism, at 5 µM, stronger effect = higher value.

SMILES	inhibition
CN(Cc1cccnc1)C(=O)COc1ccc(Cl)c(Cl)c1.O=[N+]([O-])c1cc([N+](=O)[O-])c(O)c([N+](=O)[O-])c1	inactive: 32.1%
